Patent US6544542B1, “Fat emulsions for inhalational administration” (Nippon Shinyaku Co., Ltd., priority 1998, dated 2003)

Test: Test Example 7: influence of the solubilization-effective surfactant concentration on nebulizer sprayability
Format: physicochemical

nebulizer sprayability, Dexamethasone palmitate: Infeasible
Substance: Triton X100
